Laboratory results: patent US8173840B2, “Compounds with high therapeutic index” (Signature R&D Holdings, LLC, priority 2003, dated 2012)

How the values were obtained:
laboratory mice = experiment: DSS induced ulcerative colitis in mice, disease treatment study (Disease Activity Index); format: in vivo, mouse
Source text: The mean group DAI is the determined.
Much more dramatic results were obtained when the mice were initially treated with DSS to induce colitis. Once clear symptoms of colitis were seen, DSS was replaced by drinking water, and treatment started with test and reference drugs, including vehicle control. All results are mean of 10 mice.

[1] = 0.2% w/v aqueous solution, pH around 5, room temperature
[2] = room temperature

Substance | mice that died (out of 10) (laboratory mice) | clear solution stable for [1] [months] | solubility in aqueous solution [2] | solubility, times that of Cyclosporine A in water [2] [times]
Cyclosporine A N-(L-lysine)-glycine ester, dihydrochloride trihydrate [Cyclosporine-GL] | 1 | – | – | –
Cyclosporine A N-(L-proline)-glycine ester, hydrochloride [Cyclosporine-GP] | none died | 3 | approximately 2000 micrograms/ml | 60
